Test results published in PubChem BioAssay AID588342 (National Center for Advancing Translational Sciences (NCATS), 2011).
The hits were mostly taken out for another list; the other results follow. Records with an inconclusive call do not appear. Calls of active or inactive are those of the source. Calls come from the whole dose curve; as a rule, active = well fitted inhibition curve with a large enough effect; inconclusive = small, poorly fitted or top-dose-only effect; inactive = flat fitted curve, though single readings scatter.
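Note: plate controls were vehicle for no effect and reference inhibitor for full effect; nearly all actives have a fitted effect of over 55% in size.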

By UniProt entry, the sequences of proteins in these tests, tags left out.
UniProt P08659, whole entry, looked up: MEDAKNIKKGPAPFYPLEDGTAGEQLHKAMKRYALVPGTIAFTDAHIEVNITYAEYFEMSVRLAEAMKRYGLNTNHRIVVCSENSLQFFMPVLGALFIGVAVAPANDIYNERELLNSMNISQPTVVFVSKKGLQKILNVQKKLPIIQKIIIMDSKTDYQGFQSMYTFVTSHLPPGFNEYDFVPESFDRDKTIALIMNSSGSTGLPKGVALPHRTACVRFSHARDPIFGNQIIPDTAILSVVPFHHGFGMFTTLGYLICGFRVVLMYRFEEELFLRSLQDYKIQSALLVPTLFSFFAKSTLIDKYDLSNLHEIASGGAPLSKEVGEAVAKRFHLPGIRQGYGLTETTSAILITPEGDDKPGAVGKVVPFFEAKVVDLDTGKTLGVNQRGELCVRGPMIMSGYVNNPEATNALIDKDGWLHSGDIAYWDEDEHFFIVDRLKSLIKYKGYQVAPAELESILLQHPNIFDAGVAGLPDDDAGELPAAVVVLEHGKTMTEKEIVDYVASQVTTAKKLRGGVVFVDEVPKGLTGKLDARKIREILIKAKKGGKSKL

Each molecule was assayed against Luciferin 4-monooxygenase (Photinus pyralis) (UniProt P08659) (assay: qHTS profiling assay for firefly luciferase inhibitor/activator using purifed enzyme and Km concentrations of substrates (counterscreen for miR-21 project)). Details: purified FLuc, luminescence inhibition; at 57.5 µM (top of the series).
Description: MLPCN Grant: 1 R21 NS059478-01 (miR-21 grant) Assay Provider: NCGC NCGC Assay Overview: Firefly (Photinus pyralis) luciferase is one of the most commonly used transcriptional reporters for a number of reasons. It is considered one of the more dynamically responsive reporters -that is, responsive to changes in reporter transcription - as it requires no post-translational modifications and is enzymatically active directly after protein synthesis (Wood, 1998). Additionally, the half-life of the luciferase protein is short relative to other reporter-gene products (Wood, 1995). […] Although light produced in a bioluminescence reaction is of lower intensity than that produced during fluorescence emission, this is offset by little to no background light inherent to luminescent assays. […] Accumulated intracellular FLuc protein can be measured as an increase in luminescence signal, upon addition of detection reagents (which contain high concentrations of FLuc substrates) commonly used in high-throughput screening. In cell-based reporter gene assays that use FLuc as the reporter gene to quantitate the potential influence of a given compound against the target biology, this apparent increase in luminescence can mistakenly be interpreted as identification of a compound that is active against the target of interest. […]
For `COc1ccc2cc(C(C)C(=O)O)ccc2c1` (configuration not stated), the activity change, negative = inhibition was inactive: -12%. For `COc1ccc2cc([C@@H](C)C(=O)O)ccc2c1`, the activity change, negative = inhibition was inactive: 0.0668%.
